What was measured:
[1] = Transport in the human intestinal Caco-2 cell monolayer model; format: in vitro ADME; conditions: ratio of Papp BL→AP to Papp AP→BL
Protocol: For confluence and differentiation, cells were seeded at a density of 1 × 10^5 cells/cm^2 into 12-well Transwell plates (insert diameter 12 mm, pore size 3.0 μm, membrane growth area 1.12 cm^2, Costar® #3402) and were allowed to grow for 21 days before the permeation experiment. On Day 21, the monolayers with TEER values >500 Ω·cm^2 were qualified for the transport experiment. The transport study was initiated by the careful removal of the culture medium from AP and BL side of the inserts. Caco-2 monolayers were rinsed twice with pre-warmed HBSS and were incubated by pre-warmed HBSS for 30 min at 37 °C. Stock solutions of test phenolic acid esters were prepared in DMSO and diluted to 50 µM with HBSS. […] Samples were collected from the inserts, then frozen, lyophilized, redissolved in MeOH, and injected into HPLC system for quantitative analysis.
The Papp values were calculated as the following equation:Papp = (dQ/dt) × (1/A) × (1/C0) (cm/s)(1) where dQ/dt is the rate of the appearance of the test compound on the receiver compartment (μmol/s), C0 is the initial test compound concentration on the donor compartment (μmol/mL), and A is the surface area of Caco-2 monolayer (cm^2).

RAW264.7 cells = assay: MTT cytotoxicity assay in RAW264.7 cells; conditions: 3.125–100 μM; viability less than 95% of control considered toxic

efflux ratio at 90 min, 50 µM [1]: 0.75
SMILES: O=C(OCc1ccccc1)c1ccccc1O [Compound 2, benzylsalicylate]
cytotoxicity (MTT) (RAW264.7 cells): no toxicity

Source: PMC6152638, “Anti-Inflammatory Phenolic Acid Esters from the Roots and Rhizomes of Notopterygium incisium and Their Permeability in the Human Caco-2 Monolayer Cell Model” (Molecules : A Journal of Synthetic Chemistry and Natural …, 2017)
